# Apparent affinities of Ab-14 variants for a coronavirus HR2 peptide

Antigen: PDVDLGDISGINAS, a 14-residue peptide of the SARS-CoV-2 spike HR2 region.

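Phage display of a naive human antibody library on the peptide gave the parent. Variants in AAYL49 differ from the parent at up to three CDR positions; double and triple changes were sampled at random. The assay is AlphaSeq: two haploid yeast populations carry antibody and antigen on their surface. The frequency of each diploid, read from paired DNA barcodes, reflects how well the two displayed proteins bind. The ratio of observed to expected reads was calibrated, replicate by replicate, on BCL2-family standards whose Kd was known from biolayer interferometry. The assay was run in three technical replicates.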

The variants keep the light chain, the linker and the frameworks of Ab-14 (scFv order VH, the linker GGGGSGGGGSGGGGS, VL).
VH: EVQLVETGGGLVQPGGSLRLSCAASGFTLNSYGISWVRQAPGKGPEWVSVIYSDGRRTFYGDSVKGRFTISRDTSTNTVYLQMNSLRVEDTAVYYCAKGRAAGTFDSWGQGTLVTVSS
VL: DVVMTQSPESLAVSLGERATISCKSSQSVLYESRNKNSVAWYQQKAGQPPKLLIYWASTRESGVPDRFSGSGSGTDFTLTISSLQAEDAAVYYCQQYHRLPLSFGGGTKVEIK

Variants are written as CDR1, CDR2 and CDR3 of the heavy chain (limits as in the source). Parent: GFTLNSYGIS, VIYSDGRRTFYGDSVK, GRAAGTFDS.
Values are log10 of the apparent Kd in nM; lower means stronger binding.
Averages over replicates are reported, and they cover detected replicates only.
A pair that was not seen in that replicate is written "n.d."; this usually means weak binding, but a binder can also be missed.
Nonspecific signal, from three strains lacking the peptide, appeared in 15% of pairings of library AAYL49, centred on 4.06 (5% of these signals below 2.83); values are not corrected for it. The control count says in how many pairings with the empty strains this scFv gave a signal, with their mean in brackets.

| # | CDR-H1 | CDR-H2 | CDR-H3 | replicates, log10 nM | log10 Kd (nM), mean | control signals |
|---|---|---|---|---|---|---|
| 1 | GFTLNSVGIS | VIYSDGRRTFYGDSVK | GRAAGTDDH | 1.68 2.31 2.45 | 2.15 | 1 of 9 (2.22) |
| 2 | GFTLNSNGIS | VIYSDGRRNFYGDSVK | GRAAATFDS | n.d. 4.11 4.88 | 4.50 | 2 of 9 (3.70) |
| 3 | GFTLNSYGIY | VIYTDGRRTFYRDSVK | GRAAGTFDS | n.d. n.d. n.d. | n.d. | 2 of 9 (4.04) |
| 4 | GFTLNRYPIS | VIYSDWRRTFYGDSVK | GRAAGTFDS | n.d. n.d. n.d. | n.d. | 2 of 9 (4.10) |
| 5 | GFLLNSYGIS | VIYPDGRKTFYGDSVK | GRAAGTFDS | n.d. n.d. 1.81 | 1.81 | 0 of 9 |
| 6 | GFTLNSMGIS | VIYSDGRRTFYGDSVK | SRAAGTFDS | 2.18 2.56 2.41 | 2.38 | 5 of 9 (4.16) |
| 7 | GHTNNSYGIS | VIYSDGRRTFYGDSVK | GRAAWTFDS | n.d. n.d. n.d. | n.d. | 4 of 9 (4.31) |
| 8 | GFTLNSYGIS | VIYSDGRRTFYGDSVK | KRAANTFDG | n.d. n.d. n.d. | n.d. | 1 of 9 (2.96) |
| 9 | GFTLNSYGIS | VSYSKGRRTFYGDSVK | GRAAGTFDS | n.d. n.d. n.d. | n.d. | 2 of 9 (2.64) |
| 10 | KFTLLSYGIS | VIYSDGRRTFYGDSVK | GRAAGTFDS | 2.45 2.39 2.77 | 2.54 | 7 of 9 (5.33) |
| 11 | GFTLNSYGAS | VIYSDGRRTFYGDSVH | GRAAGTGDS | 3.69 n.d. 4.95 | 4.32 | 5 of 9 (4.83) |
| 12 | GFTLNSDGIS | VIYSDGRRTFYNDSVQ | GRAAGTFDS | n.d. n.d. n.d. | n.d. | 0 of 9 |
| 13 | GFTLNSYGIS | VDYSDGRRTFYGDSVK | RRAAGTFDN | 3.76 n.d. 4.92 | 4.34 | 6 of 9 (4.14) |
| 14 | GFTKNSYGIS | VIYIDGRITFYGDSVK | GRAAGTFDS | n.d. n.d. 5.97 | 5.97 | 3 of 9 (3.90) |
| 15 | GFTLNSYGII | VIYCDGRRTFYGDSVK | GRAAGTSDS | n.d. n.d. n.d. | n.d. | 0 of 9 |
| 16 | GFTLSSFTIS | VIYSDGRRTFYGDSVK | GRAAGTFDS | n.d. n.d. n.d. | n.d. | 2 of 9 (4.18) |
| 17 | GFTLYSYGIS | VIYSDGRRQFYGDSVK | GPAAGTFDS | n.d. n.d. n.d. | n.d. | 0 of 9 |
| 18 | GFTLNSYGIS | VIPSDGRRTFYGDSVK | GIAAGTFGS | n.d. n.d. n.d. | n.d. | 2 of 9 (4.05) |
| 19 | GFTLNSYGIS | VIYSDGRRTFYHFSVK | GVAAGTFDS | n.d. n.d. 3.87 | 3.87 | 1 of 9 (3.59) |
| 20 | GFTLNDYSIS | VIYSDGERTFYGDSVK | GRAAGTFDS | n.d. n.d. n.d. | n.d. | 5 of 9 (4.35) |
| 21 | GFTQNSYSIS | VIYSDGRRTFYGDSVK | GRAAGVFDS | n.d. n.d. n.d. | n.d. | 0 of 9 |
| 22 | GFTLNSYGIS | VIYSDGRRTFYGLSVK | LRAAGNFDS | n.d. n.d. n.d. | n.d. | 0 of 9 |
| 23 | GFTLNSYGIS | VIYSDGRRTFYGDSVK | FFAAGAFDS | n.d. n.d. n.d. | n.d. | 0 of 9 |
| 24 | GFTLISYGIS | VITSDGRRTKYGDSVK | GRAAGTFDS | n.d. 4.14 5.14 | 4.64 | 2 of 9 (5.61) |
| 25 | GFTLNSYGIS | VIYSDVFRTFYGDSVK | YRAAGTFDS | n.d. n.d. n.d. | n.d. | 0 of 9 |
| 26 | GMTLNSYNIS | VIYSDGRRTFDGDSVK | GRAAGTFDS | n.d. n.d. n.d. | n.d. | 2 of 9 (4.30) |
| 27 | GFTLNSYGIS | EIYPDGRRTFYGDSVP | GRAAGTFDS | 4.65 n.d. n.d. | 4.65 | 4 of 9 (4.28) |
| 28 | GFTLNSYGQS | VIYSDGRRTFYADSVK | VRAAGTFDS | n.d. n.d. n.d. | n.d. | 0 of 9 |
| 29 | GYTLNSYGIS | VIYSDGRRTTYGDSVK | GRAAGTRDS | n.d. n.d. n.d. | n.d. | 3 of 9 (4.83) |
| 30 | GFTLNSYIIS | VIYSDGRHTFYGDSVK | GRAWGTFDS | 4.89 3.57 5.83 | 4.76 | 4 of 9 (4.06) |
| 31 | GFTLWSYGIS | VIYSDGRRTFYGYSVK | GRHAGTFDS | n.d. n.d. n.d. | n.d. | 0 of 9 |

Top 2 of the variants detected in all replicates, tightest first:

CDR-H1	CDR-H2	CDR-H3	replicates, log10 nM	log10 Kd (nM), mean	control signals
GFTLNSVGIS	VIYSDGRRTFYGDSVK	GRAAGTDDH	1.68 2.31 2.45	2.15	1 of 9 (2.22)
GFTLNSMGIS	VIYSDGRRTFYGDSVK	SRAAGTFDS	2.18 2.56 2.41	2.38	5 of 9 (4.16)

Parent in this assay: reference entry 0.65, copy in this library 4.11 (one replicate of three).

Reference: Engelhart et al. 2022, doi:10.1038/s41597-022-01779-4. File: FLAb, binding data.